# How the values were obtained:
# Assay type in all cases: cell-based, human
# Jurkat J16-145 cells [1] = test: Cellular ATP determination; conditions: high concentrations of inhibitors, 2 h
# CD95L = test: Activation-induced CD95L expression, semi-quantitative RT-PCR and quantitative PCR, Jurkat cells; conditions: Jurkat J16-145; plate-bound anti-CD3 (TCR triggering), 1 h
# Jurkat J16-145 cells [2] = test: Activation-induced (PMA or anti-CD3) ROS generation, DCFDA oxidation by FACS; conditions: 30 min
substance,measurement,setting,value
antimycin A,ATP depletion compared to rotenone and piericidin A,Jurkat J16-145 cells [1],more efficient ATP depletion
same,"reduction of CD95L induction, quantitative PCR",CD95L,no effect
same,"effect on activation-induced (TCR- and PMA-induced) ROS generation, in words",Jurkat J16-145 cells [2],no effect or increased the oxidative signal

# From US8563500B2, “Methods and compounds for treating diseases caused by reactive oxygen species” (Deutsches Krebsforschungszentrum Stiftung des Offentlichen …, priority 2007, dated 2013)
